{"source": "patent US20260382581A1", "about": "“COMPOSITIONS COMPRISING CYTISINE IN THE TREATMENT AND/OR PREVENTION OF ADDICTION IN SUBJECTS IN NEED THEREOF” (published 2026)", "tested_on": "adult smokers", "experiment": "ORCA-2: biochemically-confirmed continuous smoking abstinence (primary and secondary; odds ratio, relative risk, risk difference, number needed to treat)", "procedure": "The trial was conducted at 17 U.S. sites. Adults aged>18 years were eligible if they currently smoked≥10 cigarettes per day, had expired air carbon monoxide (CO)>10 ppm, and intended to quit smoking. Individuals were excluded if they used any non-cigarette tobacco product (pipe tobacco, cigars, smokeless tobacco, hookah), electronic cigarettes, smoking cessation medication (bupropion, varenicline, nortriptyline, nicotine replacement product), or marijuana (smoked or vaped) in the 28 days before randomization or planned to use them during the study. Other exclusion criteria included uncontrolled hypertension, hepatic or renal impairment, past 3-month history of acute myocardial infarction, unstable angina, cerebrovascular incident, or hospitalization for congestive heart failure, diagnosis of schizophrenia or bipolar disorder, current psychosis, suicidal ideation or suicide risk (Columbia Suicide Severity Rating Scale), (1) moderate to severe depression symptoms (Hospital Anxiety and Depression Scale score 11), (2) or a positive urinary screen for illicit drugs. (Full criteria in Trial Protocol).\nAt a screening visit, individuals provided written informed consent, completed a medical history, brief physical examination, electrocardiogram and laboratory tests, agreed to a quit date 5 to 7 days after study drug initiation, and recorded the number of cigarettes smoked daily for 7 days. At a second visit, participants who met inclusion and exclusion criteria were randomly assigned to study arm, received brief smoking cessation counseling, set their quit date within 5 to 7 days and started study medication the next day. A predetermined central computer-generated randomization sequence was used to assign participants (1:1:1) stratified by study site to receive placebo TID for 12 weeks (Arm A), 3 mg cytisinicline TID for 6 weeks followed by placebo TID for 6 weeks (Arm B), or 3 mg cytisinicline TID for 12 weeks (Arm C).\nStudy medication was identical-appearing tablets, containing 3 mg cytisinicline or placebo taken orally TID for 12 weeks. Participants were followed for 12 additional weeks after treatment ended. All participants received 10 minutes of brief smoking cessation behavioral support provided by trained counselors at each visit from randomization through week 24.\nAssessments after randomization were conducted at in-person visits on day 2, weekly from 1 to 12 weeks, and at weeks 16, 20, and 24. Participants who discontinued study drug prematurely were encouraged to remain in the study and complete all assessment visits. Smoking status was assessed by self-report of cigarette abstinence since the last visit, measured weekly from weeks 2 through 12. Self-reported abstinence at weeks 16, 20, and 24 used the Russell criteria of not smoking more than 5 cigarettes since the last visit (3). A breath carbon monoxide (CO) level was measured at each visit. Verified abstinence required self-reported nonsmoking and a breath carbon monoxide (CO)<10 ppm. Participants not meeting these criteria or with missing data were classified as smoking.\nThe study had two primary endpoints. They assessed whether cytisinicline produced greater biochemically-confirmed continuous smoking abstinence when compared to placebo during the last 4 weeks of the 6-week treatment (weeks 3 to 6 for Arms B vs. A) and the 12-week treatment (weeks 9 to 12 for Arms C vs. A). Study success was defined as either primary endpoint meeting statistical criterion. The secondary outcome measures were verified continuous cigarette abstinence to week 24 (weeks 3 to 24 for Arms B vs. A; weeks 9 to 24 for Arms C vs. A). A third secondary outcome measure compared the risk of relapse to smoking between weeks 6 and 24 among participants assigned to cytisinicline who achieved abstinence by week 6; these individuals were either switched to placebo at week 6 (Arm B) or continued cytisinicline to week 12 (Arm C). […]"}
{"smiles": "O=c1cccc2n1C[C@@H]1CNC[C@H]2C1", "values": [{"measurement": "continuous abstinence weeks 3 to 6", "setting": "3 mg TID 6 weeks (Arm B)", "result": 25.3, "unit": "%"}, {"measurement": "continuous abstinence weeks 9 to 12", "setting": "3 mg TID 12 weeks (Arm C)", "result": 32.6, "unit": "%"}, {"measurement": "OR, continuous abstinence weeks 3 to 6", "setting": "Arm B (6 weeks) vs placebo, 95% CI 3.9-16.3, p<0.0001", "result": 8.0}, {"measurement": "OR, continuous abstinence weeks 3 to 24", "setting": "Arm B vs placebo, 95% CI 1.5-10.2, p=0.0016", "result": 3.7}, {"measurement": "OR, continuous abstinence weeks 9 to 12", "setting": "Arm C (12 weeks) vs placebo, 95% CI 3.7-11.6, p<0.0001", "result": 6.3}, {"measurement": "OR, continuous abstinence weeks 9 to 24", "setting": "Arm C vs placebo, 95% CI 2.8-11.1, p<0.0001", "result": 5.3}, {"measurement": "Biochemically confirmed continuous smoking abstinence, %", "setting": "Weeks 3-6 (primary), Arm B, 6 weeks, N = 269, placebo 4.4%", "result": 25.3, "unit": "%"}, {"measurement": "Continuous smoking abstinence, risk difference", "setting": "Weeks 3-6, Arm B 6 weeks vs. placebo, 95% CI 0.16, 0.25", "result": 0.21}, {"measurement": "Continuous smoking abstinence, relative risk", "setting": "Weeks 3-6, Arm B 6 weeks vs. placebo, 95% CI 3.26, 10.74", "result": 5.71}, {"measurement": "Continuous smoking abstinence, NNT (number needed to treat)", "setting": "Weeks 3-6, Arm B 6 weeks vs. placebo, 95% CI 4, 7", "result": 5}, {"measurement": "Continuous smoking abstinence, odds ratio", "setting": "Weeks 3-6, Arm B 6 wk vs. placebo, 95% CI 3.9 to 16.3", "result": "8.0 (3.9 to"}, {"measurement": "Continuous smoking abstinence, risk difference", "setting": "Weeks 3-6, Arm C 12 weeks vs. placebo, 95% CI 0.13, 0.22", "result": 0.18}, {"measurement": "Continuous smoking abstinence, relative risk", "setting": "Weeks 3-6, Arm C 12 weeks vs. placebo, 95% CI 2.842, 9.50", "result": 5.02}, {"measurement": "Continuous smoking abstinence, NNT (number needed to treat)", "setting": "Weeks 3-6, Arm C 12 weeks vs. placebo, 95% CI 4, 8", "result": 6}, {"measurement": "Biochemically confirmed continuous smoking abstinence, %", "setting": "Weeks 3-6, Arm C, 12 weeks, N = 270, placebo 4.4%", "result": 22.2, "unit": "%"}, {"measurement": "Biochemically confirmed continuous smoking abstinence, %", "setting": "Weeks 9-12 (primary), Arm C, 12 weeks, N = 270, placebo 7.0%", "result": 32.6, "unit": "%"}, {"measurement": "Continuous smoking abstinence, risk difference", "setting": "Weeks 9-12, Arm B 6 weeks vs. placebo, 95% CI 0.10, 0.20", "result": 0.15}, {"measurement": "Continuous smoking abstinence, relative risk", "setting": "Weeks 9-12, Arm B 6 weeks vs. placebo, 95% CI 1.98, 5.30", "result": 3.18}, {"measurement": "Continuous smoking abstinence, NNT (number needed to treat)", "setting": "Weeks 9-12, Arm B 6 weeks vs. placebo, 95% CI 4, 11", "result": 7}, {"measurement": "Biochemically confirmed continuous smoking abstinence, %", "setting": "Weeks 9-12, Arm B, 6 weeks, N = 269, placebo 7.0%", "result": 22.3, "unit": "%"}, {"measurement": "Continuous smoking abstinence, risk difference", "setting": "Weeks 9-12, Arm C 12 weeks vs. placebo, 95% CI 0.20, 0.30", "result": 0.26}, {"measurement": "Continuous smoking abstinence, relative risk", "setting": "Weeks 9-12, Arm C 12 weeks vs. placebo, 95% CI 2.98, 7.58", "result": 4.65}, {"measurement": "Continuous smoking abstinence, NNT (number needed to treat)", "setting": "Weeks 9-12, Arm C 12 weeks vs. placebo, 95% CI 3, 6", "result": 4}, {"measurement": "Continuous smoking abstinence, odds ratio", "setting": "Weeks 9-12, Arm C 12 wk vs. placebo, 95% CI 3.7 to 11.6", "result": "6.3 (3.7 to"}]}
